# Values of other authors as cited in paper PMC7238188, “Recombinant Peptide Production Platform Coupled with Site-Specific Albumin Conjugation Enables a Convenient Production of Long-Acting Therapeutic Peptide” (Pharmaceutics, 2020).
# Conditions: in the human body; cited from earlier work
# Excerpt: As alternatives to PEGylation, several strategies were developed. First, in order to increase hydrodynamic volumes, therapeutic peptides/proteins were fused to recombinant PEG mimetics such as XTEN and PAS sequences or conjugated to carbohydrates such as hydroxyethyl starch and polysialic acid. Second, in order to evade intracellular degradation via neonatal Fc receptor (FcRn)-mediated recycling, Fc-domain or albumin was fused/conjugated to therapeutic peptides/proteins. Besides, conjugation of fatty acid, an albumin ligand, was also an effective way to extend the serum half-life o ...
substance,measurement,value
human serum albumin [HSA],half-life,up to 3 weeks
